Hits are enriched below; roughly 3.7% of the tested compounds scored in any of these assays.
Nrf2 inh – inhibitors of Nrf2 signaling; 2.1% of 360,000 active; Potency, µM (titrated, usually from 46 µM), inactives show at the highest dose activity change, negative = inhibition, hits mostly inhibitors; A549 ARE-Fluc reporter, luciferase luminescence, 18-24 h; note: potency is the fitted concentration of half-maximal effect; % is set by controls: 0 for no effect and ±100 for the full control effect; nearly all actives have a fitted effect of over 60% in size
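Reporter: ARE-Fluc in A549. Exposure: 18-24 h, 37 °C, 5% CO2, 5% FBS OPTI-MEM. Readouts: fluorescent cytotoxicity (CellTiter-Fluor), then luminescent Nrf2 signal after BugLite.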
A549 tox – kills or reduces viability of A549 cells in Nrf2 counter-screen | A549 ARE-Fluc cells, CellTiter-Fluor viability, 18-24 h | Potency, µM (series often up to 46 µM), for inactives: at the highest dose activity change, negative = cytotoxicity, hits mostly inhibitors | 0.16% of 390,000 active | AID 504648; note: potency is the fitted concentration of half-maximal effect; % is set by controls: 0 for no effect and ±100 for the full control effect
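A549 ARE_Fluc cells in 5% FBS OPTI-MEM were exposed to compounds in concentration-response for 18-24 h at 37 deg C. Viability was read by CellTiter-Fluor fluorescence (Ex 405/Em 525) after 30 min, before the luciferase read.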
TCR activator – T cell receptor activation; Potency, µM (doses to about 9.22 µM), inactives show top-dose activation of IL-2 secretion, hits mostly activators; AID 504894; 330,000 tested, under 10 active; primary human leukocytes, anti-CD3, IL-2 HTRF, 48 h; note: % of control where 0% means no effect
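IL-2 release read by HTRF sandwich (Eu cryptate donor, d2 acceptor, 665 nm emission) after 48 hr exposure of primary human leukocytes to compound together with anti-CD3 beads in the absence of co-stimulatory signals.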
ClpP mod – qHTS Assay for Activators of ClpP | ATP-dependent Clp protease proteolytic subunit (Bacillus subtilis (strain 168)), P80244 | purified B. subtilis ClpP, FRET peptide cleavage, 20 min | Potency, µM (series often up to 57.5 µM), for inactives: top-dose activity change, negative = active | 1.9% of 340,000 active; active = well fitted falling curve with a large enough effect; inconclusive = small, poorly fitted or top-dose-only effect; inactive = no such curve, though single readings can be large or run the other way; note: potency is the fitted concentration of half-maximal effect; the source files actives as falling curves though it sought activators and does not explain the sign; nearly all actives have a fitted effect of over 65% in size
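ClpP 10 microg/mL final, pH 8 Tris/KCl buffer with BSA, glycerol, Tween-20; compound pinned in; FRET-FV substrate; RT 20 min; Ex320/Em430; ΔFRET vs ADEP 5.8 microM, DMSO, no enzyme.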
Nrf2 ARE act – Nrf2 pathway activation. AREc32 ARE-luciferase reporter (MCF7-derived line), luminescence, 24 h. Potency, µM (series often up to 46.1 µM), inactives show at the top dose activation, actives largely listed as activators. 0.31% of 410,000 active; note: potency is the fitted concentration of half-maximal effect; % of control where 0% means no effect; nearly all actives have a fitted effect of over 65% in size
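Steps: seed AREc32_Fluc cells (1000/well, 5% FBS OPTI-MEM); incubate overnight at 37 deg C; add 23 nL compound; incubate 24 hr; add Steady-Glo; hold 30 min RT; read luminescence.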
miR-21 reporter – raises the signal of a miR-21 reporter. HeLa miR-21 FLuc reporter, luciferase, 48 h. 340,000 tested, under 10 active. Potency, µM (highest dose often 38.3 µM), for the others: at the highest dose reporter change, positive = more light; active = well fitted rising curve with a large enough effect; inconclusive = small, poorly fitted or top-dose-only effect; inactive = no such curve, though single readings can be large or run the other way;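 note: % of control where 0% means no effect; miR-21 action dims this reporter so a rising signal means less miR-21 action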
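Using DMEM plus 10% FBS, HeLa miR-21-FLuc cells are incubated with test compounds (final up to about 40uM) for 48 hours; firefly luciferase signal is then imaged following reagent-mediated lysis.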
* = called active by the depositor; ? = inconclusive; · = no result; [ ] = remark or other dose. Unless noted, calls come from the whole dose curve; as a rule, active = well fitted curve in the direction sought with a large enough effect; inconclusive = small, poorly fitted or top-dose-only effect, or another doubt; inactive = no such curve, though single readings can be large; an effect the other way counts as inactive or inconclusive.

entry	smiles	Nrf2 inh	A549 tox	TCR activator
1	Nc1c2c(nc3ccccc13)N(C1CCCCC1)CC2	17%	-1%	-1%
2	Cc1cccc(N2CCN(S(=O)(=O)c3cn(C)c(C)n3)CC2)c1C	·	17%	·
3	COc1ccc(Cl)cc1C(=O)O/N=C(\N)c1ccncc1	?	-1%	5%
4	Cc1cccc(Cc2c(C)nc3c(C(=O)NCc4ccco4)cnn3c2C)c1	23µM*	?	2%
5	Cc1nc2c(C(=O)NCc3ccc4c(c3)OCO4)c[nH]n2c(=O)c1Cl	0%	-2%	·
6	Cc1nc2c(C(=O)NCc3ccc4c(c3)OCO4)cnn2c(C)c1Cc1ccc(F)cc1Cl	?	0%	3%
7	Cc1nc2c(C(=O)NCc3cccs3)cnn2c(C)c1Cc1ccccc1	·	·	3%[46.1 µM]
8	Cc1nc2c(C(=O)NCc3ccco3)cnn2c(C)c1Cc1ccc(F)cc1Cl	?	-19%	-2%
9	COc1cccc(CNC(=O)c2c[nH]n3c(=O)c(Cl)c(C)nc23)c1	-4%	2%	2%[46.1 µM]
10	O=C(CSc1nnc(CNC(=O)c2ccccc2)o1)NCc1ccc2c(c1)OCO2	1%	5%	-6%
11	Cc1cc2c(s1)c1cnn(Cc3c(F)cccc3C(F)(F)F)c(=O)c1n2C	15%	3%	·
12	COc1ccc(-c2oc3ccc(-c4cc(OC)c(OC)c(OC)c4)cc3c2C#Cc2ccccn2)cc1	-9%	-4%	4%
13	O=C(CC[C@H]1O[C@@H](n2ccc(=O)[nH]c2=O)[C@H](O)[C@@H]1O)NCCc1c[nH]c2ccccc12	·	·	·
14	N#Cc1c(C(F)(F)F)cc(-c2ccc(Cl)cc2)[nH]c1=O	16µM*	-25%	-18%
15	CSc1scc2c1-c1nc(SCC(=O)C(C)(C)C)ncc1CC2	-30%	?	-3%

entry	ClpP mod	Nrf2 ARE act	miR-21 reporter
1	14µM*	0%	2%
2	-1%	2%	-19%
3	1%	4µM*	-27%
4	32µM*	15%	19%
5	32µM*	0%	0%
6	35µM*	0%	-5%
7	·	·	-10%
8	32µM*	4%	-3%
9	?	-1%	3%
10	1%	0%	-3%
11	·	·	·
12	4%	0%	·
13	1%	0%	·
14	5%	1%	1%
15	4%	6%	-6%

The list continues.
entry	smiles	Nrf2 inh	A549 tox	TCR activator
16	C=CCNC(=O)CSc1ncc2c(n1)-c1c(csc1SC)CC2	-21%	0%	-1%
17	Cc1cccc(NC(=O)C[n+]2cccc(C)c2)c1	3%	-11%	·
18	O=C(C[n+]1cccc(O)c1)Nc1ccc(Br)cc1	28%	0%	-3%
19	O=c1c(-c2nnc(SCc3ccc(Cl)cc3)o2)cccn1Cc1ccccc1	21µM*	?	-4%
20	O=C(Nc1ccccc1-c1nnc(SCc2ccccc2)o1)c1ccccc1	?	-14%	8%
21	CCOc1ccccc1-c1nnc(SCc2ccc(Cl)cc2)o1	1%	14%	·
22	O=C(O)c1ccc(CSc2nnc(-c3ccc(Cl)cc3)o2)cc1	3%	-2%	·
23	O=C(O)c1ccc(CSc2nnc(-c3ccccc3Br)o2)cc1	0%	-5%	6%
24	O=C(Nc1ccccc1-c1nnc(SCc2ccc(Cl)cc2)o1)c1ccccc1	11%	?	2%
25	COc1cccc(C2c3c(ncn(-c4ccc(F)cc4)c3=N)Oc3ccc4ccccc4c32)c1 (centres undefined)	?	-21%	·
26	O=C(Nc1ccc2c(c1)OCO2)c1cc(C2CCCCN2C(=O)c2ccc3c(c2)CCO3)on1 (centres undefined)	·	·	·
27	O=C(c1ccc(F)cc1F)C1CCN(c2ccc([N+](=O)[O-])cn2)CC1	23µM*	-17%	0%
28	O=[N+]([O-])c1ccc(N2CCOCC2)nc1	-10%	?	3%
29	O=C(COC(=O)CNC(=O)c1ccc(Cl)cc1Cl)Nc1cccc(S(=O)(=O)N2CCCC2)c1	-10%	8%	-5%
30	Cn1c2ccc(F)cc2c2ncn(CCCN(CCO)CCO)c(=O)c21	?	-3%	-4%

entry	ClpP mod	Nrf2 ARE act	miR-21 reporter
16	32µM*	-1%	-4%
17	1%	2%	-2%
18	28µM*	0%	-1%
19	55%	0%	0%
20	28µM*	0%	0%
21	-1%	?	-10%
22	0%	0%	4%
23	-1%	-2%	-13%
24	10µM*	0%	-3%
25	·	·	·
26	-2%	3%	·
27	·	1%	2%
28	2%	-1%	-5%
29	3%	0%	·
30	28µM*	3%	-14%

Sorted by molecular weight (descending): part of the list above.
entry	smiles	Nrf2 inh	A549 tox	TCR activator
23	O=C(O)c1ccc(CSc2nnc(-c3ccccc3Br)o2)cc1	0%	-5%	6%
20	O=C(Nc1ccccc1-c1nnc(SCc2ccccc2)o1)c1ccccc1	?	-14%	8%
30	Cn1c2ccc(F)cc2c2ncn(CCCN(CCO)CCO)c(=O)c21	?	-3%	-4%
28	O=[N+]([O-])c1ccc(N2CCOCC2)nc1	-10%	?	3%

entry	ClpP mod	Nrf2 ARE act	miR-21 reporter
23	-1%	-2%	-13%
20	28µM*	0%	0%
30	28µM*	3%	-14%
28	2%	-1%	-5%

The results go on:
entry	smiles	Nrf2 inh	A549 tox	TCR activator
31	COc1ccc2c(c1)c1ncn(Cc3ccc(F)cc3)c(=O)c1n2C	4%	1%	1%
32	CCC(Sc1nc2ccncc2[nH]1)C(=O)Nc1ccc(F)cc1 (centres undefined)	6%	-17%	·
33	Cc1cn([C@@H](CCCCNC(=O)OC(C)(C)C)C(=O)NCCCCCCCCCCC(=O)N2CCN(C(=O)OC(C)(C)C)CC2)nn1	10µM*	16µM*	-6%
34	CC[C@H](C)Cc1cn([C@@H](CCCN=C(NC(=O)OC(C)(C)C)NC(=O)OC(C)(C)C)C(=O)NCCCCCCCCCCC(=O)N2CCN(C(=O)OC(C)(C)C)CC2)nn1	?	?	2%
35	Cc1ccccc1Cn1nc(C)c(NC(=O)c2cc(CC(C)C)on2)c1C	?	4%	-11%
36	Cc1nn(Cc2ccc(Cl)c(Cl)c2)c(C)c1NC(=O)c1cc(CC(C)C)on1	8.2µM*	?	0%
37	CCCc1cc(C(=O)Nc2c(C)nn(Cc3ccc(Cl)c(Cl)c3)c2C)no1	16µM*	-15%	·
38	Cc1ccc(S(=O)(=O)CCSc2n[nH]c(=O)n2-c2ccc3c(c2)OCCO3)cc1	-6%	-6%	7%
39	NC(=O)c1ccccc1NC(=O)CCn1c(=S)oc2ccccc21	?	2%	6%
40	COc1ccccc1C(=O)NC(CCSC)C(=O)NCc1ccncc1 (centres undefined)	-4%	-1%	14%
41	Cc1ccc(N2CC(NC(=O)c3ccc4c(c3)OCO4)CC2=O)cc1 (centres undefined)	·	-2%	·
42	COc1ccc(-c2cc(C(F)(F)F)n3nc(C(=O)O)cc3n2)cc1OC	·	-14%	-8%
43	COC(=O)c1cc2nc(-c3ccc(OC)c(OC)c3)cc(C(F)(F)F)n2n1	·	8%	2%
44	COc1ccc(-c2cc(C(F)(F)F)n3nc(C(=O)N4CCCCC4)cc3n2)cc1	?	-4%	-2%

entry	ClpP mod	Nrf2 ARE act	miR-21 reporter
31	-5%	0%	1%
32	-3%	1%	12%
33	1%	-1%	·
34	0%	-4%	·
35	0%	0%	10%
36	0%	3%	15%
37	0%	4%	28%
38	-1%	?	7%
39	·	0%	-2%
40	-2%	0%	·
41	-23%	1%	0%
42	-1%	0%	-16%
43	3.2µM*	0%	1%
44	-17%	0%	-5%

From PubChem
